# Source: patent US20240238294A1 (published 2024)
# Like-named read-outs stand apart in the source and are kept apart here.
# Assays:
# H358 parental cells [1] = tested on: H358 parental cells
# H358 parental cells [2] = tested on: H358 parental cells; remark: listed apart in the source
compound,measurement,setting,value
COc1cc2nc(C)nc(N[C@H](C)c3cc(N)cc(C(F)(F)F)c3)c2cc1O[C@H]1CCOC1 [BI-3406],growth inhibition,H358 parental cells [1],modestly inhibited growth
same,growth inhibition,H358 parental cells [2],modestly inhibited growth
